According to PubChem BioAssay AID602363 (Broad Institute, 2012):
About 450 (0.13%) of roughly 350,000 compounds were called active. Shown is part of a subset that was picked to be rich in actives. Unmarked numbers belong to inactive results.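 How the source made its calls: active means replicate mean at a twofold rise or more (about +100% in these data); inactive means the rest.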

Assay: modulators of yeast start codon fidelity, primary screen, whole organism, S. cerevisiae, single point, plate reader (AID 602363)
Settings: S. cerevisiae UUG-firefly luciferase reporter, luminescence/redox ratio; at 18.7 µM; hits give high values

Q: For `COc1ccc(NC(=O)Nc2cccc3c2O[C@@H](CN(C)Cc2ccncc2)[C@H](C)CN([C@H](C)CO)C3=O)cc1`, which activity score is on record?
A: -5.85%

Q: With `CC(C)C#Cc1ccc2c(c1)O[C@@H](CN(C)C(=O)Nc1ccccc1)[C@H](C)CN([C@H](C)CO)S2(=O)=O` as the molecule, how does the activity score read?
A: -2.56%

Q: With `CCC(=O)N(C)C[C@@H]1Oc2ncc(C#CCC3CCCC3)cc2C(=O)N([C@@H](C)CO)C[C@H]1C` as the molecule, how does the activity score read?
A: 5.33%

Q: With `O=C(c1ccncc1)N1C[C@H]2[C@@H](c3ccccc31)[C@H](CO)N2C(=O)c1ccccn1` as the molecule, how does the activity score read?
A: -20.1%

Q: With `O=C(N[C@H]1CC[C@@H](CCNS(=O)(=O)c2ccc(Cl)cc2)O[C@H]1CO)c1cccc(F)c1` as the molecule, how does the activity score read?
A: 12.6%

Q: For `CC(C)CC#Cc1cnc2c(c1)C(=O)N([C@H](C)CO)C[C@H](C)[C@@H](CN(C)Cc1ccccc1)O2`, which activity score is on record?
A: 16.5%

Q: With `C[C@H](CO)N1C[C@H](C)[C@@H](CN(C)C(=O)C2CCCCC2)Oc2cc(-c3ccccc3)ccc2S1(=O)=O` as the molecule, how does the activity score read?
A: 9.53%

Q: With `C[C@H]1CN([C@@H](C)CO)C(=O)c2cc(NC(=O)Cn3cnnn3)ccc2O[C@@H]1CN(C)S(=O)(=O)c1cccs1` as the molecule, how does the activity score read?
A: -10.2%

Q: Which activity score does the source give for `O=C(O)C[C@@H]1C[C@@H]2c3cc(NC(=O)NC4CCCC4)ccc3O[C@@H]2[C@H](CO)O1` here?
A: -9.94%

Q: For `COc1cccc(S(=O)(=O)Nc2ccc3c(c2)[C@H]2C[C@H](CC(=O)O)O[C@H](CO)[C@H]2O3)c1`, which activity score is on record?
A: -0.528%

Q: For `Cc1noc(C)c1NC(=O)Nc1ccc2c(c1)C(=O)N([C@H](C)CO)C[C@H](C)[C@@H](CN(C)Cc1ccc3c(c1)OCO3)OCCCC[C@@H](C)O2`, which activity score is on record?
A: -5.08%

Q: Which activity score does the source give for `C[C@@H]1CN([C@@H](C)CO)C(=O)c2cc(C#CC(C)(C)O)cnc2O[C@@H]1CN(C)C(=O)C1CCOCC1` here?
A: -1.48%

Q: Which activity score does the source give for `CCc1ccc(NC(=O)CN2C(=O)CSC2=O)cc1` here?
A: -4.72%

Q: With `Cc1cccc(NC(=O)CN2C(=O)CNC2=O)c1` as the molecule, how does the activity score read?
A: -17.5%

Q: With `CC(=O)N1CC(=O)N(CC(=O)Nc2ccc(Br)cc2)C1=S` as the molecule, how does the activity score read?
A: 120% (active)

Q: For `CCCNC(=O)N(C)C[C@H]1Oc2ncc(C#CC(C)C)cc2C(=O)N([C@@H](C)CO)C[C@@H]1C`, which activity score is on record?
A: 11.9%

Q: For `CO[C@H]1CN(C)C(=O)c2cc(NC(=O)c3cc(C)on3)ccc2OC[C@H](C)N(C(C)=O)C[C@H]1C`, which activity score is on record?
A: 7.59%

Q: Which activity score does the source give for `O=C(Cc1ccccn1)N[C@H]1CC[C@H](CCNS(=O)(=O)c2cccc(F)c2)O[C@@H]1CO` here?
A: -14.5%

Q: Which activity score does the source give for `CC(=O)N1C[C@@H]2[C@H](c3ccccc31)[C@H](CO)N2C(=O)Nc1ccc(F)cc1` here?
A: 27%

Q: With `O=C(C[C@@H]1C=C[C@H](NC(=O)CCN2CCCCC2)[C@H](CO)O1)NCc1ccc(Cl)c(Cl)c1` as the molecule, how does the activity score read?
A: -10.1%

Q: For `O=C(Nc1ccc(Oc2ccccc2)cc1)c1ccco1`, which activity score is on record?
A: 570% (active)

Q: Which activity score does the source give for `O=C(NNC(=O)c1ccco1)Nc1ccccc1` here?
A: -11.9%

Q: Which activity score does the source give for `Cc1ccc(NC(=O)c2ccco2)cc1` here?
A: 13.9%

Q: For `CC(C)NC(=O)N1CCCCN2[C@H](CO)[C@H](c3ccc(C#C[C@H](C)O)cc3)[C@H]2C1`, which activity score is on record?
A: 4.66%

Q: For `Cc1noc(C)c1S(=O)(=O)N(C)C[C@@H]1OCCCC[C@H](C)Oc2ccc(NC(=O)Nc3ccc4c(c3)OCO4)cc2C(=O)N([C@H](C)CO)C[C@@H]1C`, which activity score is on record?
A: -17.6%

Q: Which activity score does the source give for `O=C(Nc1ccc(Cl)cc1)N1C[C@@H]2[C@H](c3ccccc31)[C@@H](CO)N2C(=O)c1cccnc1` here?
A: -17%

Q: Which activity score does the source give for `CC(C)NC(=O)Nc1ccc2c(c1)C(=O)N([C@@H](C)CO)C[C@H](C)[C@@H](CN(C)C(=O)Nc1ccc(F)cc1)OCCCC[C@H](C)O2` here?
A: -6.2%

Q: With `C[C@H](CO)N1C[C@H](C)[C@H](CN(C)Cc2ccc3c(c2)OCO3)Oc2c(cccc2N(C)C)C1=O` as the molecule, how does the activity score read?
A: -9.31%

Q: With `COc1ccc(S(=O)(=O)N(C)C[C@H]2OCCCC[C@@H](C)Oc3ccc(NC(=O)CCC(F)(F)F)cc3C(=O)N([C@@H](C)CO)C[C@H]2C)cc1` as the molecule, how does the activity score read?
A: 1.93%

Q: Which activity score does the source give for `C=CCOC(=O)[C@H]1[C@@H]2C(=O)O[C@@H](c3ccccc3)[C@@H](c3ccccc3)N2[C@@H](c2ccc(OCCOC(=O)[C@H]3C[C@H]4C(=O)NCC(=O)N4[C@H]3c3ccc(O)cc3)cc2)[C@]12C(=O)Nc1ccccc12` here?
A: -7.32%

Q: Which activity score does the source give for `COc1ccccc1-c1cnc2c(c1)C(=O)N([C@H](C)CO)C[C@@H](C)[C@@H](CN(C)CC1CCCC1)O2` here?
A: -0.682%

Q: For `C[C@H](CO)N1C[C@H](C)[C@H](CN(C)C(=O)c2ccccn2)Oc2ncc(-c3ccccc3F)cc2C1=O`, which activity score is on record?
A: 9.71%

Q: Which activity score does the source give for `Cc1noc(C)c1NC(=O)N(C)C[C@@H]1Oc2ccc(NS(=O)(=O)c3ccc(Cl)cc3)cc2C(=O)N([C@@H](C)CO)C[C@H]1C` here?
A: 9.56%

Q: Which activity score does the source give for `C[C@H](CO)N1C[C@H](C)[C@@H](CN(C)Cc2ccc(Cl)c(Cl)c2)Oc2c(NC(=O)C3CCCCC3)cccc2C1=O` here?
A: 0.419%

Q: With `CO[C@H]1CN(C)C(=O)c2cc(NS(C)(=O)=O)ccc2OC[C@H](C)N(C(=O)C2CCCC2)C[C@H]1C` as the molecule, how does the activity score read?
A: -1.38%

Q: For `C[C@@H]1CN([C@H](C)CO)C(=O)Cc2cc(NS(=O)(=O)c3ccc(Cl)cc3)ccc2O[C@@H]1CN(C)S(=O)(=O)c1ccc(Cl)cc1`, which activity score is on record?
A: -17.9%

Q: Which activity score does the source give for `Cc1ccc(S(=O)(=O)N(C)C[C@@H]2Oc3ccc(NS(=O)(=O)c4c(C)noc4C)cc3CC(=O)N([C@H](C)CO)C[C@H]2C)cc1` here?
A: 12.2%

Q: With `CCCNC(=O)C[C@H]1CC[C@@H]2[C@H](COc3ccc(NC(=O)c4ccc(OC)cc4)cc3C(=O)N2C)O1` as the molecule, how does the activity score read?
A: 4.65%

Q: For `C[C@@H](NC(=O)C[C@H]1C[C@H]2c3cc(NC(=O)Nc4ccccc4F)ccc3O[C@H]2[C@@H](CO)O1)c1ccccc1`, which activity score is on record?
A: -2.05%

Q: With `CCCNC(=O)N1C[C@@H](O)COC[C@H]2O[C@@H](CC(=O)NCCCN3CCOCC3)CC[C@@H]21` as the molecule, how does the activity score read?
A: -4.24%
